{"sequences": {"note": "Amino acid sequences for entries named in this document (tags omitted).", "UniProt P25774, whole entry": "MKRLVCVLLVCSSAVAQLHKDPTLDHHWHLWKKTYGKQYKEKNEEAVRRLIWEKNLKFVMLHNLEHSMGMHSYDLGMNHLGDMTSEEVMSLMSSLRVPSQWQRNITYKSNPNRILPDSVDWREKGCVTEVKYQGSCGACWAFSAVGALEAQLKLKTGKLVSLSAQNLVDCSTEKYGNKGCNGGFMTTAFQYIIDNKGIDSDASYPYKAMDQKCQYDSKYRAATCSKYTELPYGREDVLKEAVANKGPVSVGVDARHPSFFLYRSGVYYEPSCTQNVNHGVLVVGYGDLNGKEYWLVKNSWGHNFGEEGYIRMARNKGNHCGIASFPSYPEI"}, "source": "ChEMBL document CHEMBL1139902", "about": "“Synthesis and SAR of succinamide peptidomimetic inhibitors of cathepsin S” (Bioorg Med Chem Lett, 2007)", "data": [{"target": "Cathepsin S (Homo sapiens, UniProt P25774)", "units": {"Ki": "nM"}, "values": [{"smiles": "C[C@@H](CNc1ccc(OC(F)(F)F)cc1)NC(=O)[C@@H](CC(=O)N1CCOCC1)c1ccc(C(F)(F)F)cc1", "Ki": 1590}, {"smiles": "COc1ccc([C@H](CC(=O)N2CCOCC2)C(=O)N[C@H](CNc2ccc(OC(F)(F)F)cc2)C(C)C)cc1", "Ki": 105}, {"smiles": "C[C@@H](CNc1ccc(OC(F)(F)F)cc1)NC(=O)[C@@H](CC(=O)N1CCOCC1)CC(C)(C)C", "Ki": 408}, {"smiles": "CC[C@@H](CNc1ccc(OC(F)(F)F)cc1)NC(=O)[C@@H](CC(=O)N1CCOCC1)CC1CCCCC1", "Ki": 16}, {"smiles": "C[C@@H](CNc1ccc(OC(F)(F)F)cc1)NC(=O)[C@@H](CC(=O)N1CCOCC1)CC1CCCC1", "Ki": 31}, {"smiles": "CC(C)[C@@H](CNc1ccc(OC(F)(F)F)cc1)NC(=O)[C@@H](CC(=O)N1CCOCC1)c1ccc(Cl)cc1", "Ki": 21}]}]}
